Results published in patent publication US20140377189A1, “PULMONARY ADMINISTRATION OF ROTIGOTINE” (MAP Pharmaceuticals, Inc., priority 2013, published 2014).

Experiment: In situ rotigotine salt screening (precipitate formation in ethanol/HFA 227 solution formulation)
Assay type: physicochemical
Conditions: 1 mg/mL rotigotine free base with acid, 10% (w/w) ethanol in HFA 227; immediately upon preparation
Experimental: Rotigotine, bulk drug substance, was purchased from Chemagis (Perrigo API). A stock solution of rotigotine was prepared by dissolving rotigotine particles in ethanol at 10 mg/mL. With 1.5 mL rotigotine stock solution added to formulation bottles, each formulation bottle contained 15 mg rotigotine. For preparation of acid stock solutions, it was assumed that complete reaction or ion-pairing between rotigotine and acid. Based on the molecular weight and number of anions of each acid as listed in Table 1, acids stock solutions were prepared by dissolving the required amount in ethanol.
Each formulation bottle was filed with 1.5 mL of rotigotine stock solution and 1.0 ml, of acid stock solution. The formulation bottles (PET bottles) were then sealed with continuous valves and vortexed for 30 seconds to mix the solution well. Finally, 17.6 g of 1,1,1,2,3,3,3-heptafluoropropane (HFA227 (Mexichem)) to make a final volume of 15 mL of rotigotine formulation. All the bottles were hand shaken for 10 seconds.
All in situ salt screening samples were made as 1 mg/mL of rotigtine free base in 10% (w/w) ethanol in HFA 227. Acids corresponding to the salt forms in Table 1 were added according to the molar ratio with rotigotine for complete reaction. As 1 mg/mL was the minimal required dose at the time of experiment, all formulations were tested at this level to screen out non-solution salt formulations. […]

Substance: Succinate
- Observation Immediate: white precipitate
